Antibody variant affinities, Ab-95 light chain, assay 2

From the AlphaSeq antibody data of Engelhart et al. 2022 (doi:10.1038/s41597-022-01779-4), copy in the FLAb collection.

The target is the same throughout: PDVDLGDISGINAS, from the HR2 region of SARS-CoV-2 spike.

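The starting antibody came from a phage panning campaign against this peptide. AAYL52 was designed without a model: most single CDR substitutions and a random sample of double and triple ones. Affinity was read by AlphaSeq, a pooled yeast mating assay with surface-displayed partners. Binding brings cells together so that they mate, and sequencing counts the barcode pairs among the diploids. Read counts were normalised to the haploid input and turned into Kd by a linear fit to BCL2-family pairs of known affinity, for each replicate. There are three technical replicates.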

The variants keep the heavy chain, the linker and the frameworks of Ab-95 (scFv order VH, a 15-residue (Gly4Ser)3 linker, VL).
VH: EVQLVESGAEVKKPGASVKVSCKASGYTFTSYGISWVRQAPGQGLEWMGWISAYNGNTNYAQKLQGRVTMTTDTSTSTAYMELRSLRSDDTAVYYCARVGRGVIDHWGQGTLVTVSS
VL: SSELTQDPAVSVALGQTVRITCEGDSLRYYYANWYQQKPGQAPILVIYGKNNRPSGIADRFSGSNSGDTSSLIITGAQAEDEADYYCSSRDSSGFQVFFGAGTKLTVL

Positions count from residue 1 of the parent VL; Y30S puts S in place of Y.
All variants listed here change G94 of the VL, counted from its first residue.
Scale: log10 of Kd in nM, estimated from mating counts; low values are strong binders.
The mean shown is taken over the replicates in which the pair was detected.
Where no diploid with the target was found in that replicate, the entry reads "nd": below detection, most likely a poor binder, though not proof of it.
Entries are sorted by rising average, undetected variants last.

- Y30S+D91H+G94N -> 1.61, 1.66, 0.99 (mean 1.42)
- K50H+R90L+G94Y -> 2.91, 2.65, 1.86 (mean 2.47)
- E23C+G94W -> 2.57, 2.44, nd (mean 2.51)
- E23Q+G94N -> 2.97, 2.75, 2.15 (mean 2.62)
- Y31E+S93N+G94R -> 2.71, 2.73, 3.18 (mean 2.88)
- G94L -> 3.25, 3.03, 2.59 (mean 2.96)
- S55F+S89P+G94Q -> 3.38, 2.97, 3.04 (mean 3.13)
- Y30F+R53Q+G94Y -> nd, nd, 3.13
- Y29M+G94S+F95W -> 2.53, 3.78, 3.11 (mean 3.14)
- D25F+A32Q+G94P -> 3.16, nd, nd
- S89K+G94S+F95Q -> 3.19, nd, nd
- Y30K+S89L+G94S -> 2.95, nd, 3.44 (mean 3.19)
- G94T+V97E+F98H -> 3.24, nd, nd
- E23M+D25H+G94V -> 3.52, 3.42, 3.68 (mean 3.54)
- S26Y+S88V+G94T -> 3.49, 4.07, 3.22 (mean 3.59)
- S26Y+G94I -> 3.89, 3.63, nd (mean 3.76)
- N51F+G94E -> nd, 3.96, nd
- S26E+S92G+G94I -> nd, 4.08, nd
- E23H+N52K+G94Q -> 4.02, 3.49, 4.75 (mean 4.08)
- N51R+S92W+G94V -> nd, 4.73, 3.46 (mean 4.10)
- G49Q+P54G+G94K -> nd, nd, 4.13
- N33K+S88T+G94K -> 4.04, 4.97, nd (mean 4.50)
- R90K+D91H+G94A -> 4.98, 4.61, nd (mean 4.79)
- A32I+N52M+G94T -> 4.48, 5.15, nd (mean 4.82)
- N33G+S93V+G94R -> 5.35, 4.40, nd (mean 4.88)
- G24Y+N51S+G94S -> 5.13, nd, nd
- G24Y+G49F+G94H -> nd, nd, nd
- Y29G+G49I+G94E -> nd, nd, nd
- L27R+N51Y+G94W -> nd, nd, nd
- N33H+P54Y+G94Y -> nd, nd, nd
- R28W+Y30W+G94P -> nd, nd, nd
- Y30D+K50T+G94D -> nd, nd, nd
- G49Q+K50Q+G94T -> nd, nd, nd
- S88V+G94S+F98I -> nd, nd, nd
- R53Q+S55H+G94R -> nd, nd, nd
- G94W+V97W -> nd, nd, nd

The 4 strongest on average among those seen in every replicate, once more:

- Y30S+D91H+G94N = 1.61, 1.66, 0.99 (mean 1.42)
- K50H+R90L+G94Y = 2.91, 2.65, 1.86 (mean 2.47)
- E23Q+G94N = 2.97, 2.75, 2.15 (mean 2.62)
- Y31E+S93N+G94R = 2.71, 2.73, 3.18 (mean 2.88)

Background: pairings of library AAYL52 with three empty control strains gave a value in 28% of cases (median 3.91, 5th percentile 2.90). Values in that range, when seen in few replicates, are hard to tell from nonspecific mating.
For reference, the parent read 2.31 as the reference entry and 2.25 as a member of this library.